Results: patent US10933059B2, “Combination, application thereof and treatment method” (KANGPU BIOPHARMACEUTICALS, LTD., priority 2016, dated 2021)

Tested on: Vcap cells
Assay: CTG cell proliferation assay on Vcap cells (compounds alone or in combination, 5 days)
Type: cell-based
Conditions: Homo sapiens, 120 h, tested compound alone, read-out: Survival rate of Vcap cells
Procedure: In vitro test of the inhibition effect of the compound in combination with androgen receptor pathway modulators on the prostate cancer cell proliferation.
Inhibition effect of the compounds such as B101, B102, B103, B104, B105, B106, C111 and the like, androgen receptor pathway modulators, hormone compounds, alone or in combination with each other on the prostate cancer cell proliferation were tested on Vcap cells (androgen receptor (+) prostate cancer cells) (ATCC, catalogue number CRL-2876). The specific experimental operation was as follows: 5×10^3 Vcap cells per well were inoculated into 96-well plates with transparent bottom and white wall (Corning, catalogue number CLS3903) containing the specific medium, and were cultured in a 37° C., 5% CO2 incubator for 24 hours. The tested compounds and the androgen receptor pathway modulators were prepared to a 150 mM stocking solution with DMSO (Sigma, catalogue number 276855), diluted with culture medium to the desired concentrations (the final concentration of DMSO is 0.2%), and then added to each well, 2 wells/concentration, followed by being incubated in a 37° C., 5% CO2 incubator for 5 days. The tested compounds were used alone or in combination with other androgen receptor pathway modulators and/or hormone compounds respectively. […] After that, 100 μl of CellTiter-Glo® cell viability assay reagent (Promega, catalogue number G7570) was added to each well and mixed well on a vibrator for 10 minutes to induce cell lysis. The 96-well plate was placed at room temperature for 10 minutes, so as to stabilize its luminescence signal. A white bottom membrane was pasted on the bottom of the plate and the plate was tested using EnSpire.

## CNC(=O)c1ccc(N2C(=S)N(c3cnc(C#N)c(C(F)(F)F)c3)C(=O)C23CCC3)cc1F [ARN-509, reference compound]
0.1 μM
  viability at 0.1 µM: 81.8%
1 μM
  viability at 1 µM: 52.2%
10 μM
  viability at 10 µM: 48.9%
